Measured values: patent US20030069187A1, “Elastase inhibitors” (priority 2001, published 2003)

Amino acid sequences for entries named in this document (tags omitted). Residues count along the entry.
UniProt P00772, 27-266: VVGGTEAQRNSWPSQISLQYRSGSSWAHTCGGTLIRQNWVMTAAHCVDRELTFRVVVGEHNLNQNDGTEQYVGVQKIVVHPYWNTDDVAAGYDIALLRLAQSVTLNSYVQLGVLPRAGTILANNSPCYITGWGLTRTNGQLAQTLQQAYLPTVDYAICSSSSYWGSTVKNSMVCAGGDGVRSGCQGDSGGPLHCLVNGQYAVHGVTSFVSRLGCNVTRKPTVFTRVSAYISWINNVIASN

Experiments:
Type in all cases: biochemical
[1] = biological target: T1, human neutrophil elastase (HNE) (Homo sapiens, UniProt P08246); experiment: Kinetic analysis (Lineweaver-Burk) of inhibitor constant with elastin substrate, HNE
T1 construct: purchased Calbiochem San Diego, Calif
T1 sequence (P08246 30-267): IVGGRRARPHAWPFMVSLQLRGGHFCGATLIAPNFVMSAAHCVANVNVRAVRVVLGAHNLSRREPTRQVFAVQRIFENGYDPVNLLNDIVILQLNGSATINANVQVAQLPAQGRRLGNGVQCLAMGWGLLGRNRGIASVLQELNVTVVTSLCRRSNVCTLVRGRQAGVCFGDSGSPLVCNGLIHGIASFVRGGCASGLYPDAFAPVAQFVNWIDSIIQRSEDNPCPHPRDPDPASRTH
Method: (§1) Total EDP was fractionated on a G-25 Sephadex column equilibrated with 50 mM sodium borate pH 8.5 at a flow rate of 0.7 ml/minute. G-25 inhibitory fractions were then analyzed by reverse phase high performance liquid chromatography (RP-HPLC) using a C-18 column (Vydac, Hesperia, Calif.) with 5% acetonitrile, 0.1% triflouroacetic acid pH 2.3 as RP buffer at a flow rate of 0.5 ml/minutes and monitored at A205nm. Fractions were collected, dried, and resuspended in 50 μl water and assayed for elastase inhibitory capacity (Rao et al., 1997; Mathrabutham et al., 1998). The inhibitory capacity of G-25 and RP-HPLC EDP fractions were evaluated (Rao et al., 1997; Mathrabutham et al., 1998) using 3 μg of G-25 fraction and RP-HPLC peptide with 0.029 U PPE. Percentage inhibitory capacity was evaluated by comparing the activity of PPE in the presence and absence (100% activity) of EDP and standardized to μg protein. The inhibitor constant (Ki) was experimentally calculated (Lineweaver et al., 1936). The assay was carried out in triplicate as previously described (Rao et al., 1997) using 11.16-134 μM elastin substrate, 3.34-9.94 μM AFP peptide, 0.029 U of porcine pancreatic elastase (PPE) and 0.010 U human neutrophil elastase (HNE; 21 U/mg; Calbiochem San Diego, Calif.) and incubated at 37° C. for 1,3 and 5 min. Ki is a measure of inhibiting effect and lower Ki indicates greater inhibition.

[2] = biological target: T2, porcine pancreatic elastase (PPE) (Sus scrofa, UniProt P00772); experiment: Kinetic analysis (Lineweaver-Burk) of inhibitor constant with elastin substrate, PPE
T2 construct: purchased Calbiochem, San Diego, Calif
Method: as §1

[3] = biological target: T2, porcine pancreatic elastase (PPE); experiment: Elastase inhibitory capacity assay with succinylated elastin substrate; conditions: 0.029 U PPE, 200 μg succinylated elastin, 37° C. 30 min, % inhibition standardized to μg protein, p<0.001
Method: FIG. 1 is a bar graph depicting results from experiments in which the inhibitory capacity of each EDP isolate was evaluated in triplicate using 200 μg of succinylated elastin (Rao et al., 1997; Mathrubutham et al., 1998), 30 μg of Total EDP, […] of G-25 fractions and RP-HPLC fractions and 0.029 U PPE in 150 μl with 50 mM sodium borate pH8.5. Reactions were incubated at 37° C. for 30 minutes, then treated with 2,4,6-trinitrobenzene sufonic acid. Absorbance at A450nm was determined after 20 min at room temperature. Elastase inhibitory capacity was evaluated by comparing the activity of PPE in the presence and absence of EDP, where elastase in the absence of EDP was considered to represent 100% elastase activity. […]
Total EDP was fractionated on a G-25 Sephadex column equilibrated with 50 mM sodium borate pH 8.5 at a flow rate of 0.7 ml/minute. G-25 inhibitory fractions were then analyzed by reverse phase high performance liquid chromatography (RP-HPLC) using a C-18 column (Vydac, Hesperia, Calif.) with 5% acetonitrile, 0.1% triflouroacetic acid pH 2.3 as RP buffer at a flow rate of 0.5 ml/minutes and monitored at A205nm. […] The inhibitory capacity of G-25 and RP-HPLC EDP fractions were evaluated (Rao et al., 1997; Mathrabutham et al., 1998) using 3 μg of G-25 fraction and RP-HPLC peptide with 0.029 U PPE. […] The inhibitor constant (Ki) was experimentally calculated (Lineweaver et al., 1936). […]

- Ki ([1]; HNE 0.010 U, 11.16-134 μM elastin substrate, 3.34-9.94 μM AFP, 37° C.): 0.023 µM
- mode of inhibition of HNE ([1]; kinetic analysis): competitive inhibitor
- Ki ([2]; PPE 0.029 U, 11.16-134 μM elastin substrate, 3.34-9.94 μM AFP, 37° C.): 0.038 µM
- mode of inhibition of PPE ([2]; kinetic analysis): competitive inhibitor
- increase in elastase inhibitory capacity compared to total EDP [3]: 4.4 fold
- increase in elastase inhibitory capacity compared to total EDP ([3]; listed as Synthetic AFP): 7.6 fold
SMILES: C[C@H](N)C(=O)N[C@@H](Cc1ccccc1)C(=O)N1CCC[C@H]1C(=O)O [AFP, Ala-Phe-Pro]
